The list shows a part of the results, in another mix than the full data. Active and inactive are the calls of the source. Rule as the data show it: active = activation above about 4%; inactive = the rest.

This is an account of results in PubChem BioAssay AID602270 (The Scripps Research Institute Molecular Screening Center, 2012).

The subject of the assay is Methionine sulfoxide reductase A (Bos taurus). Kind of assay: methionine sulfoxide reductase A activation – biochemical, absorbance, bovine, HTS, confirmation (AID 602270).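 Also: enzyme coupled to thioredoxin and thioredoxin reductase with NADPH; 0% = vehicle wells and 100% = reference activator wells.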 The note with it: purified bovine MsrA, absorbance read-out; at 10.6 µM; stronger effect = higher value.

As to `O=[N+]([O-])c1cc([N+](=O)[O-])c(-c2cnn(-c3ccccc3)c2)c([N+](=O)[O-])c1`, the activation was inactive: 2.85%.
